This is a sample that favours compounds with a hit; in the whole collection about 13% have one here.
ALDH1A1 inh = blocks purified human ALDH1A1 activity; P00352; Purified ALDH1A1, NADH fluorescence, propionaldehyde substrate; Potency, µM (highest dose often 75.3 µM), inactives show at the highest dose activity, negative = inhibition, most hits filed as inhibitors; 220,000 compounds, 7.3% hits; AID 1030; active means well fitted inhibition curve with a large enough effect, not every such curve was filed as active; inconclusive means small, poorly fitted or top-dose-only effect, or another doubt; inactive means no such curve, though single readings can be large or run the other way;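 further: potency means the concentration at half of the fitted maximal effect; plate controls were no enzyme wells and a reference inhibitor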
miR-21 reporter = miR-21 reporter, rising signal | AID 2288 | HeLa miR-21 FLuc reporter, luciferase, 48 h | 340,000 tested, under 10 active | Potency, µM (doses to about 38.3 µM), for inactives: at the top dose reporter change, positive = more light; active = well fitted rising curve with a large enough effect; inconclusive = small, poorly fitted or top-dose-only effect; inactive = no such curve, though single readings can be large or run the other way;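 note: % of control where 0% means no effect; miR-21 action dims this reporter so a rising signal means less miR-21 action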
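HeLa cells endogenously expressing miR-21, stably carrying CMV-driven firefly luciferase with a downstream miR-21 binding site, 2000 cells/well. Titrations up to approximately 40 uM, 48 hours; luciferase luminescence read.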
G9a inh = inhibitors of human histone lysine methyltransferase G9a. G9a H3K9 monomethylation, AlphaScreen, 2 h. 350,000 compounds, 8.8% hits. Potency, µM (top dose mostly 102 µM), without a hit: at the top dose activity, negative = inhibition, hits mostly inhibitors. AID 504332. Q96KQ7; further: potency means the concentration at half of the fitted maximal effect; on the % scale 0 is the no-effect control and ±100 the full control effect; nearly all actives have a fitted effect of over 75% in size
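Chemiluminescent proximity detection of H3K9 monomethylation, read after 10 min bead incubation in the dark. Reaction: 20 nM G9a, 500 nM biotin-H3K9 peptide, 20 uM SAM cofactor, 2 h, room temperature, following 15 min enzyme-compound preincubation.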
KDM4E inh = JMJD2E (human) inhibition; 230,000 compounds, 1.6% hits; JMJD2E catalytic domain, FDH-coupled NADH fluorescence (FDH is formaldehyde dehydrogenase); B2RXH2; AID 2147; Potency, µM (series often up to 57.1 µM), for inactives: at the highest dose activity change, negative = inhibition, usual class: inhibitors; active means well fitted inhibition curve with a large enough effect, not every such curve was filed as active; inconclusive means small, poorly fitted or top-dose-only effect, or another doubt; inactive means no such curve, though single readings can be large or run the other way;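 further: potency means the concentration at half of the fitted maximal effect; 0% = wells with enzyme and -100% = buffer wells without enzyme; nearly all actives have a fitted effect of over 50% in size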
Lamin A splicing = modulators of lamin A splicing; 200,000 compounds, 0.01% hits; HeLa LMNA splicing GFP/RFP minigene ratio, 48 h; Potency, µM (doses to about 46.1 µM), without a hit: at the top dose ratio change, negative = inhibition, usual class: inhibitors; active means well fitted inhibition curve with a large enough effect in the signal ratio, with a control signal flat, not every such curve was filed as active; inconclusive means small, poorly fitted or top-dose-only effect, or effect the other way, or a change in a side signal; the % refers to the signal ratio; further: potency means the concentration at half of the fitted maximal effect; on the % scale 0 is the no-effect control and ±100 the full control effect
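S3 HeLa stable clones carrying a lamin A-EGFP splicing minigene plus DsRed2 were seeded at 600 cells/well in Opti-MEM with 2% FBS, pin-dosed and incubated 48 h at 37°C. Acumen cytometry (488 nm) gave the GFP/RFP total-intensity ratio.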
Sfp PPTase inh = Sfp phosphopantetheinyl transferase inhibition; Q9F4F7; Biochemical Sfp PPTase activity, qHTS; Potency, µM, for the others: max response, negative = inhibition, usual class: inhibitors; hit rate 3.5% among 310,000; active = well fitted inhibition curve with a large enough effect; inconclusive = small, poorly fitted or top-dose-only effect, or another doubt; inactive = no such curve, though single readings can be large or run the other way;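 also: the enzyme is Sfp with the accession as filed and its product quenches rhodamine fluorescence; potency is read from the fitted curve at half-maximal effect; 0% = enzyme reaction without inhibitor and -100% = no enzyme wells; top concentration of the series not given in the record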
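Compounds were incubated with enzyme (final 15 nM) for 15 min at room temperature before substrate addition started the reaction. Fluorescence at 525 nm excitation, 598 nm emission was recorded immediately and after 30 minutes.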
Numbers without * were called inactive; [ ] = another dose, or the depositor's remark. Unless noted, the call rests on the fitted dose curve; in most records, active means well fitted curve in the direction sought with a large enough effect; inconclusive means small, poorly fitted or top-dose-only effect, or another doubt; inactive means no such curve, though single readings can be large; an effect the other way counts as inactive or inconclusive.

What do the screens show for `CCc1ccc(C(=O)NNc2ccc(C)c(Cl)c2)cc1`?
miR-21 reporter: 12%; G9a inh: 7.9µM*; KDM4E inh: -4%; Sfp PPTase inh: -5%

What do the screens show for `COc1ccc2oc(=N)c(C(=O)Nc3cccc(C)c3C)cc2c1`?
miR-21 reporter: -36%; G9a inh: -17%; Sfp PPTase inh: 19%

What do the screens show for `Nc1nnc(N)c2ccccc12`?
ALDH1A1 inh: 1%; miR-21 reporter: 2%; G9a inh: -4%; KDM4E inh: inconclusive; Lamin A splicing: 3%[46 µM]; Sfp PPTase inh: 5%

Results for Nc1nsc2ccccc12 ?
ALDH1A1 inh: inconclusive; miR-21 reporter: 30%; G9a inh: 40µM*; KDM4E inh: inconclusive; Lamin A splicing: -17%; Sfp PPTase inh: inconclusive

What do the screens show for `CN(C)c1ccc(C2C=C(c3ccc(Cl)cc3OC(F)F)Nc3ncnn32)cc1` (configuration not stated)?
ALDH1A1 inh: 20µM*; miR-21 reporter: 18%; G9a inh: 35µM*; KDM4E inh: -27%; Lamin A splicing: -21%; Sfp PPTase inh: -18%

What do the screens show for `Cc1ccc(C2C=C(c3ccccc3OC(F)F)Nc3ncnn32)cc1` (configuration not stated)?
ALDH1A1 inh: inconclusive; miR-21 reporter: -1%; G9a inh: inconclusive; KDM4E inh: inconclusive; Lamin A splicing: -6%; Sfp PPTase inh: -13%

Results for CCCOC(=O)C1[C@H]2C(=O)N(Cc3ccco3)C[C@]23C=C[C@H]1O3 (some centres not stated) ?
ALDH1A1 inh: -5%; miR-21 reporter: -1%; G9a inh: 50µM*; KDM4E inh: 1%; Lamin A splicing: -1%; Sfp PPTase inh: inconclusive

How did CC(C)c1ccc(/C=C/c2ccc(=O)n(C)n2)cc1 do in these assays?
ALDH1A1 inh: inconclusive; miR-21 reporter: -53%; G9a inh: 7%; KDM4E inh: inconclusive; Lamin A splicing: inconclusive; Sfp PPTase inh: 0%

What do the screens show for `COc1ccc(C(=O)C(C)OC(=O)CCN2C(=O)C3CC=CCC3C2=O)cc1` (configuration not stated)?
G9a inh: 7.9µM*

Results for COc1ccc(C(=O)COC(=O)CCN2C(=O)C3CC=CCC3C2=O)c(OC)c1 (configuration not stated) ?
G9a inh: -22%

Results for COC(=O)c1ccc([C@@H]2Nc3c(OC)ccc(C)c3[C@@H]3C=CC[C@@H]32)cc1 ?
miR-21 reporter: -10%; G9a inh: 3.2µM*

What do the screens show for `O=C(O)c1ccc(NS(=O)(=O)c2ccc3c(c2)C2C=CCC2C(c2ccccc2F)N3)cc1` (configuration not stated)?
ALDH1A1 inh: inconclusive; miR-21 reporter: -2%; G9a inh: 10µM*; KDM4E inh: -23%; Sfp PPTase inh: 10µM*

How did COC(=O)c1ccc(C2NC(=O)CCC2[N+](=O)[O-])cc1 (configuration not stated) do in these assays?
miR-21 reporter: -1%; G9a inh: 0%; Sfp PPTase inh: 6%

How did COC(=O)c1ccc([C@H]2Nc3ccc(S(=O)(=O)Nc4cccc(C)c4)cc3[C@H]3C=CC[C@H]32)cc1 do in these assays?
miR-21 reporter: -3%; G9a inh: 4.5µM*

How did Cc1ccc(NS(=O)(=O)c2ccc3c(c2)[C@H]2C=CC[C@H]2[C@@H](c2ccc(F)cc2)N3)cc1C do in these assays?
miR-21 reporter: 3%; G9a inh: 5.6µM*

Results for CCc1nn2c(=O)cc(COC(=O)c3ccccc3)nc2s1 ?
miR-21 reporter: -52%; G9a inh: 8%[59 µM]; Lamin A splicing: -11%[46 µM]

How did Cc1ccc(CNC(=O)CN(c2cc(C)cc(C)c2)S(=O)(=O)c2c(C)noc2C)cc1 do in these assays?
miR-21 reporter: -4%; G9a inh: 7%[59 µM]

Results for CCC(C(=O)NC1CCC(C)CC1)n1nc(C)c2sc3ccccc3c2c1=O (configuration not stated) ?
miR-21 reporter: -16%; G9a inh: -27%[59 µM]

What do the screens show for `Cc1cccc(NC(=O)C2CCCN(S(=O)(=O)c3ccc4c(c3)oc(=O)n4C)C2)c1C` (configuration not stated)?
miR-21 reporter: 0%; G9a inh: 2%[59 µM]

How did NC(=S)NN=C(c1ccccc1)c1ccccc1 do in these assays?
miR-21 reporter: 16%; G9a inh: 40µM*; Sfp PPTase inh: 12%

How did C/C(=N\NC(N)=S)c1ccccc1 do in these assays?
miR-21 reporter: 6%; G9a inh: inconclusive; KDM4E inh: -4%; Sfp PPTase inh: inconclusive

How did COc1ccc(-c2ccc(SCC(=O)NCc3ccco3)nn2)cc1OC do in these assays?
ALDH1A1 inh: inconclusive; miR-21 reporter: -23%; G9a inh: -105%; KDM4E inh: 1%; Lamin A splicing: 3%; Sfp PPTase inh: 50µM*

What do the screens show for `COc1ccc(NC(=O)CSc2nc(-c3ccc(OC)c(OC)c3)[nH]c2-c2ccc(C)cc2)cc1`?
miR-21 reporter: 26%; G9a inh: 14%[59 µM]

Results for COc1ccc(-c2[nH]c(-c3ccc(C)cc3)nc2SCC(=O)NCc2ccco2)cc1OC ?
ALDH1A1 inh: inconclusive; miR-21 reporter: 18%; G9a inh: 50µM*; KDM4E inh: inconclusive; Lamin A splicing: 1%; Sfp PPTase inh: 5%

An excerpt from above in order of SMILES length, lowest first.
How did COC(=O)c1ccc(C2NC(=O)CCC2[N+](=O)[O-])cc1 (configuration not stated) do in these assays?
miR-21 reporter: -1%; G9a inh: 0%; Sfp PPTase inh: 6%

Results for CCC(C(=O)NC1CCC(C)CC1)n1nc(C)c2sc3ccccc3c2c1=O (configuration not stated) ?
miR-21 reporter: -16%; G9a inh: -27%[59 µM]

How did Cc1ccc(NS(=O)(=O)c2ccc3c(c2)[C@H]2C=CC[C@H]2[C@@H](c2ccc(F)cc2)N3)cc1C do in these assays?
miR-21 reporter: 3%; G9a inh: 5.6µM*

The results go on:
Results for COc1ccc(-c2cc(C(F)(F)F)nc(SCC(=O)NCc3ccco3)n2)cc1OC ?
ALDH1A1 inh: 1%; miR-21 reporter: -2%; G9a inh: inconclusive; KDM4E inh: -5%; Lamin A splicing: -16%; Sfp PPTase inh: -8%

What do the screens show for `O=C(O)C1CSC2(CCN(Cc3ccccc3)CC2)N1` (configuration not stated)?
ALDH1A1 inh: -7%; miR-21 reporter: -5%; G9a inh: 7.1µM*; KDM4E inh: -23%; Lamin A splicing: -11%; Sfp PPTase inh: 50µM*

What do the screens show for `O=C(Cc1ccccc1)NC1CCN(Cc2ccccc2)CC1`?
ALDH1A1 inh: 13%; miR-21 reporter: 2%; G9a inh: inconclusive; KDM4E inh: -8%; Lamin A splicing: -5%[46 µM]; Sfp PPTase inh: 19%

How did Fc1cc2nccnc2cc1N1CCSCC1 do in these assays?
ALDH1A1 inh: 17%; miR-21 reporter: -13%; G9a inh: 30%[12.7 µM]; KDM4E inh: -3%; Lamin A splicing: 16%; Sfp PPTase inh: 13%

Results for Fc1cc2[nH]c(=S)[nH]c2c(Br)c1N1CCSCC1 ?
miR-21 reporter: -41%; G9a inh: 10µM*; Sfp PPTase inh: 50µM*

Among those listed so far, 2 have a COOH group:
What do the screens show for `O=C(O)c1ccc(NS(=O)(=O)c2ccc3c(c2)C2C=CCC2C(c2ccccc2F)N3)cc1` (configuration not stated)?
ALDH1A1 inh: inconclusive; miR-21 reporter: -2%; G9a inh: 10µM*; KDM4E inh: -23%; Sfp PPTase inh: 10µM*

What do the screens show for `O=C(O)C1CSC2(CCN(Cc3ccccc3)CC2)N1` (configuration not stated)?
ALDH1A1 inh: -7%; miR-21 reporter: -5%; G9a inh: 7.1µM*; KDM4E inh: -23%; Lamin A splicing: -11%; Sfp PPTase inh: 50µM*
